For one compound, EC50 results are on record in ChEMBL document CHEMBL1135803, “Design, synthesis, and preliminary pharmacological evaluation of N-acyl-3-aminoglutarimides as broad-spectrum chemokine inhibitors in vitro and anti-inflammatory agents in vivo” (2002).

Each structure is given as a SMILES string.

This test deals with THP-1. Briefly: Effective dose against monocyte chemoattractant protein-1(MCP-1) induced leukocyte migration of THP-1 cells. In kind it is functional. Particulars: Homo sapiens, read-out: ED50 (the source's name). The essentials: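 Trans-well microtiter migration of human myelomonocytic THP-1 cells toward 25 ng/mL MCP-1 in Gey's balanced salt solution with 1 mg/mL endotoxin-free BSA, no fetal calf serum, 2 h at 37 °C. Compound is in both compartments, DMSO 1% final, tested up to 100 μM. Migrated cells are counted by MTT as % of vehicle-only migration. ED50 is the concentration giving 50% reduction; triplicate determinations.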

In the case of `CC(C)[C@H](NC(=O)[C@@H](N)Cc1c[nH]c2ccccc12)C(=O)N[C@@H](CCC(N)=O)C(=O)O`, the EC50 was determined as 4 µM.
